Assay [1] relates to HPEKp cells. Description: proliferation assay with human epidermal keratinocyte progenitors (HPEKp), selectivity versus MDA-MB-231.
Assay [2] relates to A-549 cells. Nature of the assay: alamarBlue proliferation assay with A-549 cells. As to conditions: read-out: Activity on A-549: IC50, DMEM medium, 10% FBS. For orientation: Resazurin is reduced to fluorescent resorufin, in cell work by metabolically active cells.
Assay [3] relates to MDA-MB-231 cells. Description: alamarBlue proliferation assay with MDA-MB-231 cells (glucose-free Leibovitz's L-15 medium).
In assay [4] the test system is U-87 MG cells. Description: alamarBlue proliferation assay with U-87 MG cells. The conditions noted are these: read-out: Activity on U-87MG: IC50, EMEM medium, 10% FBS. From the text: (§1) These hyperproliferative processes can be benign or malignant and include hyperplasia, neoplasia, cancer and pre-cancerous lesions, and metastases. The antiproliferative activities of compounds falling under general formula (I) were investigated on human primary epidermal keratinocytes (HPEK) and human, murine and canine cell lines derived from hyperproliferative tissue or different cancer types, including MDA-MB-231, ZR-75-30, HCC-1395, HCC-1937, and T-47D all originating from cancer of the breast, JURKAT, RPMI-8402, LOUCY, TANQUE, REC-1, HL-60, NB-4 all originating from different types of blood cancer including lymphoma and leukemia of T-cells, B-cells and myeloid cells, TT originating from cancer of the neuroendocrine system, HeLa originating from cancer of the cervix, 23132/87, SW-948, and HCT-116 all originating from cancer of the gastrointestinal tract including stomach and colon, BHY originating from cancer of the mucosal epithelium, A-431 originating from cancer of the skin, HEP-G2 originating from cancer of the liver, NCI-H460 and A-549 both originating from cancer of the lung, PANC-1 originating from cancer of the pancreas, U-87 MG originating from cancer of the brain, A-375 and RVH-421 both originating from cancer of melanocytes, SW-1353 originating from cancer of bone-derived chondrocytes, C2C12 a mouse cell line originating from hyperproliferative muscle progenitor cells, LL/2 a mouse cell line originating from cancer of the lung, CF21.T a dog cell line originating from cancer of the connective tissue. To this end, according cells were seeded into 96-well plates (CORNING #3598) suitable for fluorescence assays at following initial cell numbers: 1000 cells per well for HPEK; 3000 cells per well for MDA-MB-231, 8000 cells per well for ZR-75-30, 1500 cells per well for HCC-1395, 1500 cells per well for HCC-1937, 3000 cells per well for T-47D, 1500 cells per well for JURKAT, 5000 cells per well for RPMI-8402, 9000 cells per well for LOUCY, 1500 cells per well for TANQUE, 9000 cells per well for REC-1, 1000 cells per well for HL-60, 1000 cells per well for NB-4, 9000 cells per well for TT, 2000 cells per well for HeLa, 2000 cells per well for 23132/87, 9000 cells per well for SW-948, 700 cells per well for HCT-116, 1500 cells per well for BHY, 700 cells per well for A-431, 1500 cells per well for HEP-G2, 500 cells per well for NCI-H460, 1000 cells per well for A-549, 1500 cells per well for PANC-1, 2500 cells per well for U-87 MG, 700 cells per well for A-375, 1500 cells per well for RVH-421, 2000 cells per well for SW-1353, 500 cells per well for C2C12, 500 cells per well for LL/2, and 3000 cells per well for CF21.T. In a volume of 90 μL per well of culture medium the cells were treated with compounds at indicated final concentrations by adding 10 μL per well of 10× compound working solutions from 1:100 pre-diluted 1000× compound DMSO stock-solutions in H2O (Water For Injection, WFI, Fisher Scientific, Gibco™ #A12873) or with the empty carrier DMSO (AppliChem, #A3672) at 0.1% v/v as control yielding a final volume of 100 μL per well. At day 5 after starting the treatments the cells were subjected to the alamarBlue® Proliferation Assay (Bio-Rad Serotec GmbH, BUF012B) according to the protocol of the manufacturer. The readout was taken with a multi-well plate-reader (Tecan Spark®) in the fluorescence mode with applying a filter for excitation at 560 nm (band width 10 nm) and for emission at 590 nm (band width 10 nm). Treatment for maximum proliferation inhibition with the commercial cytotoxic compound (S)-(+)-camptothecin (Fluorochem #M01564) at a concentration of 10 μM was included on each plate for assay quality control. Some of the test compounds of the present invention may have been obtained and applied as their salt forms.
(§2) The assays were performed in duplicate or more replicates of independent single experiments each containing a three- to six-fold replicate for every condition. […]

Assay [5] relates to SW-1353 cells. Description: alamarBlue proliferation assay with SW-1353 cells (glucose-free L-15 medium). The conditions noted are these: read-out: Activity on SW-1353: IC50, Leibovitz's L-15 medium, 10% FBS, 0% CO2.
Assay [6] relates to PANC-1 cells. Nature of the assay: alamarBlue proliferation assay with PANC-1 cells. The conditions noted are these: read-out: Activity on PANC-1: IC50, DMEM medium, 10% FBS.
Text: as §1, §2

Assay [7] relates to A-431 cells. Nature of the assay: alamarBlue proliferation assay with A-431 cells. As to conditions: read-out: Activity on A-431: IC50, DMEM medium, 10% FBS.
Assay [8] concerns HEP-G2 cells. Description: alamarBlue proliferation assay with HEP-G2 cells. As to conditions: read-out: Activity on HEP-G2: IC50, RPMI 1640 medium, 10% FBS.
Assay [9] relates to SW-948 cells. Description: alamarBlue proliferation assay with SW-948 cells (glucose-free L-15 medium). The conditions noted are these: read-out: Activity on SW-948: IC50, Leibovitz's L-15 medium, 10% FBS, 0% CO2.
In assay [10] the test system is JURKAT cells. Description: alamarBlue proliferation assay with JURKAT cells. As to conditions: read-out: Activity on JURKAT (IC50), day 5.
Assay [11] concerns NCI-H460 cells. Nature of the assay: alamarBlue proliferation assay with NCI-H460 cells. As to conditions: read-out: Activity on NCI-H460: IC50, RPMI 1640 medium, 10% FBS.
The test system of assay [12] is RVH-421 cells. Description: alamarBlue proliferation assay with RVH-421 cells (glucose-free L-15 medium). As to conditions: read-out: Activity on RVH-421: IC50, Leibovitz's L-15 medium, 10% FBS, 0% CO2.
Assay [13] concerns HL-60 cells. Nature of the assay: alamarBlue proliferation assay with HL-60 cells. The conditions noted are these: read-out: Activity on HL-60: IC50, RPMI 1640 medium, 10% FBS.
Assay [14] relates to C2C12 cells. Description: alamarBlue proliferation assay with C2C12 cells. As to conditions: read-out: Activity on C2C12: IC50; C2C12 murine myoblast cells, RPMI 1640 medium, 10% FBS.
Where [15] appears, read: read-out: Activity (HPEK), HPEK cells (HPEKp), antiproliferative activity, class by IC50.
[16] abbreviates: read-out: Activity (MDA), MDA-MB-231 cells, antiproliferative activity, class by IC50.
Setting [17] is: read-out: Activity on MDA-MB-231 (IC50), glucose-free Leibovitz's L-15, 10% FBS, day 5, alamarBlue.
Where [18] appears, read: read-out: Activity (HPEK): antiproliferative activity on HPEK cells, IC50 category, HPEK cells cultivated in CnT-Prime medium.
Where [19] appears, read: read-out: Activity (MDA): antiproliferative activity on MDA-MB-231 cells, IC50 category, MDA-MB-231 cells cultivated in glucose-free Leibovitz's L-15 medium.

Like-named read-outs stand apart in the source and are kept apart here.

For `O=C(c1ccc(Oc2ccc(C3CCC4(CC3)OCCO4)cc2CO)cc1)N1CC2(CN(Cc3ccc(Cl)cc3)C2)C1`, the IC50 is under 10 µM in assay [1] (setting [15]); at most 5 µM in [2]; under 1 µM in assay [3] (setting [16]); at most 1 µM in [3] (setting [17]); at most 20 µM in [4]; at most 5 µM in assay [5]. The IC50 in assay [6] is at most 20 µM.
As for `O=C(c1ccc(Oc2ccc(C3CCC4(CC3)OCCO4)cc2CO)cc1)N1CCN(Cc2cccnc2)CC1`, the IC50 was at most 1 µM in assay [7]; under 10 µM in assay [1] (setting [18]); at most 1 µM in [2]; under 1 µM in assay [3] (setting [19]); at most 1 µM in assay [3] (setting [17]); at most 5 µM in [8]. Further, the IC50 in assay [4] was at most 20 µM; in assay [5], at most 1 µM; in assay [6], at most 20 µM.
For `Cc1cc(C(=O)N2CCN(Cc3ccccc3)CC2)ccc1Oc1ccc(C2CCC3(CC2)OCCO3)cc1CO`, the IC50 in assay [9] was at most 5 µM; in assay [10] it was at most 20 µM; in [1] (setting [18]) it was over 10 µM; in [2], at most 1 µM; in assay [11] it was at most 20 µM; in assay [3] (setting [19]) it was under 1 µM. Also, the IC50 in assay [3] (setting [17]) was at most 1 µM; in [12] it was at most 1 µM; in [4] it was at most 5 µM; in [5] it was at most 1 µM; in assay [6] it was at most 5 µM; in assay [13] it was at most 5 µM.
`C#CCOc1ccc(CN2CCN(C(=O)c3ccc(Oc4ccc(C5CCC6(CC5)N=N6)cc4CO)cc3)CC2)cc1`: the IC50 in assay [1] (setting [18]) was under 5 µM; in [2], at most 0.2 µM; in assay [3] (setting [19]), under 1 µM; in assay [3] (setting [17]), at most 0.2 µM; in assay [4], at most 20 µM; in [5] it was at most 0.2 µM. Moreover, the IC50 in assay [6] is at most 20 µM.
Turning to `O=C(c1ccc(Oc2ccc(C3CCC4(CC3)OCCO4)cc2CO)cc1)N1CCN(Cc2cccc(Cl)c2)CC1`, the IC50 in assay [14] was at most 5 µM; in [1] (setting [18]) it was under 10 µM; in assay [2], at most 5 µM; in assay [3] (setting [19]), under 1 µM; in assay [3] (setting [17]), at most 0.2 µM; in assay [5], at most 0.2 µM. Moreover, in assay [6], the IC50 is at most 20 µM.
Regarding `O=C(c1ccc(Oc2ccc(C3CCC4(CC3)OCCO4)cc2CO)cc1)N1CC2CN(Cc3ccccc3)CC2C1` (stereo not shown), the IC50 in [1] (setting [15]) is under 10 µM; in assay [2] it was at most 5 µM; in assay [3] (setting [16]) it was under 1 µM; in [3] (setting [17]), at most 1 µM; in [4] it was at most 20 µM; in assay [5], at most 1 µM. Also, in [6], the IC50 is at most 5 µM.
With `O=C(c1ccc(Oc2ccc(C3CCC4(CC3)SCCS4)cc2CO)cc1)N1CCN(Cc2ccccc2)CC1`, the IC50 is at most 20 µM in assay [14]; under 5 µM in assay [1] (setting [18]); at most 5 µM in [2]; under 1 µM in assay [3] (setting [19]); at most 0.2 µM in [3] (setting [17]); at most 5 µM in [4]. The figures for the IC50 in assay [5] and in [6] were at most 0.2 µM and at most 20 µM, respectively.
On to `O=C(c1ccc(Oc2ccc(C3CCC4(CC3)OCCO4)cc2CO)cc1)N1CCN(Cc2nccs2)CC1`, for which the IC50 in assay [9] was at most 5 µM; in assay [1] (setting [18]), under 10 µM; in [2] it was at most 1 µM; in assay [11] it was at most 5 µM; in [3] (setting [19]), under 1 µM; in assay [3] (setting [17]), at most 1 µM. Also, the IC50 in assay [12] was at most 1 µM; in assay [5], at most 1 µM; in assay [6], at most 5 µM; in assay [13], at most 5 µM.

These data come from US20260384421A1, “NOVEL COMPOUNDS THAT CAN BE USED AS THERAPEUTIC AGENTS” (published 2026).
